## Antibody variant affinities, Ab-14 heavy chain, assay B

Antigen: PDVDLGDISGINAS, a 14-residue peptide of the SARS-CoV-2 spike HR2 region.

The variants keep the light chain, the linker and the frameworks of Ab-14 (scFv order VH, a (GGGGS)3 linker, VL).
VH: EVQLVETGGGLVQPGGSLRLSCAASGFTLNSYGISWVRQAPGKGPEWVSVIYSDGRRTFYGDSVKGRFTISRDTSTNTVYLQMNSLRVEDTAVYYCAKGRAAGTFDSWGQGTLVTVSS
VL: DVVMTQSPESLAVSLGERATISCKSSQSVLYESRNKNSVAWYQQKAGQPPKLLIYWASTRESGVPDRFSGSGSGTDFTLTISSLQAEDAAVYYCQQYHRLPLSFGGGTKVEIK

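Phage display of a naive human antibody library on the peptide gave the parent. This is the validation round: designs drawn from the data on random variants, tested in the same kind of assay. Several design methods are mixed in this list. The assay is AlphaSeq: two haploid yeast populations carry antibody and antigen on their surface. The frequency of each diploid, read from paired DNA barcodes, reflects how well the two displayed proteins bind. Scores were corrected for input abundance and mapped to Kd with protein pairs of known affinity run in the same pool. Mating was done six times.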

Each variant is given by its three heavy chain CDRs, as the data file delimits them; those of the parent are GFTLNSYGIS, VIYSDGRRTFYGDSVK, GRAAGTFDS.
This list holds designs with more than six substitutions.
Each Kd is an estimate from the mating assay, the geometric mean of the replicates in which the pair was seen; lower is stronger.
"nd" means that the variant was in the library but no mating with the target was seen in any replicate; the authors take this as a sign of poor binding, and no number exists.
A sequence measured in both rounds can read differently, since the two assays cover different ranges.
In the paper, a design with two or fewer of six values counts as a poor binder.
Three control strains display no target. For all heavy chain designs, 1% of the pairings with them gave a signal, with a median of 120 nM and one signal in twenty below 7.0 nM, so weak values seen in few replicates may be background. Also given: how often the same scFv was detected with the empty control strains.

For FKIGEDYGIS / VIYADGLRTAYENSVK / GDIAGTFDL, the assay gave 5.4 nM (6 of 6 replicates; controls 0 of 18). With GFDLNEYGIS / VIYADGQRTAYADSVK / GEAAGTFDS the result was 500 pM (6 of 6 replicates; controls 0 of 18). With GFDLNEYGIS / VIYADGRRTAYSDSVK / GEMAGTFDS the result was 340 pM (6 of 6 replicates; controls 1 of 18). The variant GFDLNEYGIS / VIYADGMRSAYADDVK / GENAGTFDV gave 900 pM (6 of 6 replicates; controls 0 of 18). The variant GFDLDEYGIS / VIYADGQRTAYADSVK / GNQAGTFDI showed 1.3 nM (6 of 6 replicates; controls 1 of 18). With GFDLAEYGIS / VIYADGQRKSYANSFK / GRLSGTNIM the result was 28 nM (1 of 6 replicates; controls 0 of 18).

With GFDLNEYGIS / VIYADGSRTAYADSVK / GETAGTFDL the result was 930 pM (6 of 6 replicates; controls 0 of 18). With GSDLEEYGIS / VIYADGMRMVYADSVK / GHYGLGKVM the result was nd (0 of 6 replicates; controls 0 of 18). With GFDLNEYGIS / VIYADGQRTAYADSVK / GSNAGTFDL the result was 310 pM (6 of 6 replicates; controls 0 of 18). For GFDLEEYGIS / VIYADGKRTFYSDSVK / GENAGTFDI, the assay gave 520 pM (6 of 6 replicates; controls 0 of 18). The variant GKGLDEYGVS / VIYADGKRHQYAGDVK / GGLAGQFDV showed nd (0 of 6 replicates; controls 0 of 18). The variant GFDIMEYGVS / VIYADGVRTAYTQDVK / GENLDSYVD gave 47 nM (6 of 6 replicates; controls 0 of 18).

With GFGLDEYGIS / VIYADGVRRSYVDNVK / GFDGEGSIV the result was nd (0 of 6 replicates; controls 0 of 18). The variant GFDLNEYGIS / VIYADGMRTAYADDVK / GNNAGTFDQ gave 440 pM (6 of 6 replicates; controls 1 of 18). The variant GFDLNEYGIS / VIYADGRRTSYIDSVK / GETAGTFDS showed 3.6 nM (6 of 6 replicates; controls 0 of 18). With GFDLDEYGIS / VIYADGRRTFYKDSVK / GGNAGTFDM the result was 1.3 nM (1 of 6 replicates; controls 0 of 18). The variant GFDLNEYGIS / VIYADGMRTFYADSVK / GSNAGTFDV gave 4.2 nM (4 of 6 replicates; controls 0 of 18). The variant GFNLDEYGIS / VIYADGKREAYANKVK / GEQGSFFIT showed 110 nM (1 of 6 replicates; controls 0 of 18).

With EDSLNEYGIS / VIYADGVRAAYADPVK / GENDGLFDQ the result was nd (0 of 6 replicates; controls 0 of 18). For GFDLNEYGIS / VIYADGKRTAYADSVK / GNVAGTFDF, the assay gave 200 pM (6 of 6 replicates; controls 1 of 18). With GFDLDEYGIS / VIYADGRRTAYADSVK / GENAGTFDV the result was 350 pM (6 of 6 replicates; controls 1 of 18). The variant GDSLEEYGIS / VIYADGKRKAYKNKAK / GQTAGYFDV gave nd (0 of 6 replicates; controls 0 of 18). The variant GFDLNEYGIS / VIYADGQRTAYADDVK / GGNAGTFDV gave 750 pM (6 of 6 replicates; controls 0 of 18). The variant GDSLEEYGIS / VIYADGKRKAYKNKAK / GQVAGYFDV showed 8.2 nM (1 of 6 replicates; controls 0 of 18).

For GFQLDEYGIS / VIYADGRRTFYSDSVK / GQVAGTFDV, the assay gave 7.9 nM (6 of 6 replicates; controls 0 of 18). The variant GFDLNEYGIS / VIYADGRRTFYADSVK / GQVAGTFNV showed 1.7 nM (6 of 6 replicates; controls 0 of 18). The variant GFDLNEYGIS / VIYADGQRTFYIDSVK / GEIAGTFDV gave 130 pM (6 of 6 replicates; controls 0 of 18). With GFDIEDYGIS / VIYADGMRSSYSNSFK / GLMSGNIMV the result was nd (0 of 6 replicates; controls 0 of 18). The variant GFTLDEYGIS / VIYADGRRTFYIDSVK / GETAGTFDV gave 570 pM (6 of 6 replicates; controls 1 of 18). The variant GNSLDEYGIS / VIYADGMRTAYTDNFK / GVGSNTLVD showed nd (0 of 6 replicates; controls 0 of 18).

The variant GFNLEEYGIS / VIYADGKRTKYSDNVK / GHIGNVRVV showed 760 nM (1 of 6 replicates; controls 0 of 18). The variant GFDLEDYGIS / VIYADGKRTAYAQKFK / GTIGGTFVD gave 3.7 nM (6 of 6 replicates; controls 0 of 18). With GFDLDEYGIS / VIYADGRRTFYADSVK / GELAGTFFD the result was 380 pM (6 of 6 replicates; controls 0 of 18). For GFDLNEYGIS / VIYADGRRTFYTDSVK / GTNAGTFDQ, the assay gave 3.3 nM (6 of 6 replicates; controls 0 of 18). With GFDLNEYGIS / VIYADGVRTAYADNVK / GNVAGTFDM the result was 510 pM (6 of 6 replicates; controls 0 of 18). For GFDLNEYGIS / VIYADGMRTAYADDVK / GNHAGTFDI, the assay gave 430 pM (6 of 6 replicates; controls 0 of 18).

With GFDINEYGIS / VIYADGRRTFYADSVK / GTNAGTFDS the result was 930 pM (6 of 6 replicates; controls 0 of 18). The variant GFDLEKYGIS / VIYADGKRVAYQDAVK / GGTGGMFMV gave nd (0 of 6 replicates; controls 0 of 18). The variant GFDLNEYGIS / VIYADGQRTSYADSVK / GNQAGTFDV showed 710 pM (6 of 6 replicates; controls 0 of 18). The variant GFALNEYGIS / VIYADGFRRSYQDKVK / GHNAGEFSV showed nd (0 of 6 replicates; controls 0 of 18). The variant GFDLDEYGIS / VIYADGVRTAYADSVK / GNTAGTFDL gave 1.1 nM (6 of 6 replicates; controls 0 of 18). For GFDLNEYGVS / VIYADGKRTAYTDTVK / GNQFDAWMA, the assay gave nd (0 of 6 replicates; controls 0 of 18).

With GFDLNEYGIS / VIYADGRRTAYADNVK / GETAGTFDV the result was 1.8 nM (6 of 6 replicates; controls 1 of 18). For GFDLDEYGIS / VIYADGQRTAYTDSVK / GNQAGTFDV, the assay gave 810 pM (6 of 6 replicates; controls 1 of 18). The variant GFDLNEYGIS / VIYADGRRTAYADKVK / GEVAGTFDV gave 340 pM (6 of 6 replicates; controls 0 of 18).

The last 5 entries again:

The variant GFDLDEYGIS / VIYADGVRTAYADSVK / GNTAGTFDL gave 1.1 nM (6 of 6 replicates; controls 0 of 18).
The variant GFDLNEYGVS / VIYADGKRTAYTDTVK / GNQFDAWMA gave nd (0 of 6 replicates; controls 0 of 18).
The variant GFDLNEYGIS / VIYADGRRTAYADNVK / GETAGTFDV gave 1.8 nM (6 of 6 replicates; controls 1 of 18).
The variant GFDLDEYGIS / VIYADGQRTAYTDSVK / GNQAGTFDV gave 810 pM (6 of 6 replicates; controls 1 of 18).
The variant GFDLNEYGIS / VIYADGRRTAYADKVK / GEVAGTFDV gave 340 pM (6 of 6 replicates; controls 0 of 18).

Reference: Li et al. 2023, doi:10.1038/s41467-023-39022-2. File: FLAb, binding data.